Earlier results, collected in article PMC3101248.

Target: VPS35 (Homo sapiens) (UniProt Q96QK1)
Settings: cited from earlier work

VPS29 (from UniProt Q9UBQ0)
Kd: 250 nM
